Reference: PubChem BioAssay AID504383 (The Scripps Research Institute Molecular Screening Center, 2011)
The entries are a selection whose mix differs from that of the whole data set. Calls of active or inactive are those of the source.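 Rule for the calls: active = mean activation above the low control average plus 3 SD, as set in the primary screen (cut at about 12% in these data); inactive = the rest.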

What follows are molecules tested against Troponin I, cardiac muscle (Homo sapiens) + Troponin T, cardiac muscle (Homo sapiens) + Troponin C, slow skeletal and cardiac muscles (Homo sapiens) (UniProt P19429+P45379+P63316) (assay: calcium sensitizers of cardiac thin filaments – biochemical, IANBD-TnC fluorescence, triplicate, confirmation (AID 504383;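 note: 0% = DMSO at 0.472 mM calcium and 100% = DMSO at 2.9 mM calcium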)). Settings: IANBD-labeled cardiac RTF, Ca2+ sensitivity fluorescence; at 7.2 µM; hits give high values; scaled from EC20 to saturating calcium; tested at EC20 calcium, 0.472 mM.
Procedure, shortened: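 Test system: labelled regulated thin filament protein complex. Dosing: single nominal compound dose of 7.2 µM. Benchmarks: EC20 and EC100 calcium wells. Read-out basis: fluorescence gain scaled between EC20 and EC100 calcium controls. Probe or stimulus: submaximal calcium at 0.472 mM (EC20). Technique: fluorescence. Times: 15 min compound exposure, 25 °C.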

Row | SMILES | activation
1 | CN(C)C(=O)c1c([N+](=O)[O-])cc([N+](=O)[O-])cc1[N+](=O)[O-] | inactive: 6.49%
2 | Cc1cccc(C)c1OP(C)(=O)Nc1ccc(SC(F)(F)F)cc1 (configuration not stated) | inactive: 4.33%
